# The list shows a part of the results, in another mix than the full data. Some salts or complexes appear as unconnected parts, following the source record. Activity calls are given as the source filed them. Calls come from the whole dose curve; as a rule, active = well fitted inhibition curve with a large enough effect; inconclusive = small, poorly fitted or top-dose-only effect; inactive = no such curve, though single readings can be large or run the other way.
# By UniProt entry, the sequences of proteins in these tests, tags left out. Residues count along the entry.
# UniProt P17405, 47-631 limits assumed: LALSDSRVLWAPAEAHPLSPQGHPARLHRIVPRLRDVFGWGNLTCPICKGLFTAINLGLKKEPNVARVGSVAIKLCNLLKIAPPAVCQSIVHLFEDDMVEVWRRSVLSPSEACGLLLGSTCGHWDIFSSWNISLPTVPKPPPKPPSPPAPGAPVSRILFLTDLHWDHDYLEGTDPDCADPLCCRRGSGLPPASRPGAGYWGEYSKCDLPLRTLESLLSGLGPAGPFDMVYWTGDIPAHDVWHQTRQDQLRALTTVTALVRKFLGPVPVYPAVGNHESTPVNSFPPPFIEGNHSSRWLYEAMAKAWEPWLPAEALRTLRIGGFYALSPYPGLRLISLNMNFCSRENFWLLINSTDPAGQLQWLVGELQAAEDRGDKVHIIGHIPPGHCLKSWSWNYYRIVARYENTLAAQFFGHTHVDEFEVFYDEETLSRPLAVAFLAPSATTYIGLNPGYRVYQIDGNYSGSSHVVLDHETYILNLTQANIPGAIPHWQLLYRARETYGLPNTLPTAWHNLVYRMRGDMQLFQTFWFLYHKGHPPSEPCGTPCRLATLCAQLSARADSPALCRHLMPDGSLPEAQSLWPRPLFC
# Biological target: Sphingomyelin phosphodiesterase (Homo sapiens) (UniProt P17405)
# Test: Inhibitors of Secretory Acid Sphingomyelinase (S-ASM): qHTS
# Conditions: placental ASM, HMU-PC fluorogenic substrate (series up to 57.5 µM), 60 min; at 57.5 µM (top of the series)
row,Structure (SMILES),"activity change, negative = inhibition"
1,CN1CCN(CCOC(=O)C(O)(c2ccccc2)c2ccccc2)CC1,inactive: 3.23%
2,COc1ccc(NC2CCN(C(=O)OC(C)(C)C)CC2)cc1,inactive: -0.939%
3,COc1cc(C(=O)NCC2(N3CCCCC3)CCCCC2)ccc1OC(F)F,inactive: -3.35%
4,O=C(NCC1(N2CCOCC2)CCCCC1)c1cc(=O)[nH]c2ccccc12,inactive: -0.128%
5,O=C(NCC1(N2CCCCC2)CCCCC1)c1cccc(C(F)(F)F)c1,inactive: 1.14%
6,O=[N+]([O-])c1cc([N+](=O)[O-])c(NCC2CCS(=O)(=O)C2)c([N+](=O)[O-])c1 (stereo unspecified),inactive: -5.61%
7,O=C(NCC1(N2CCCCC2)CCCCC1)c1cccc([N+](=O)[O-])c1,inactive: -0.349%
8,CSc1ccc(C(=O)NCC2(N3CCOCC3)CCCCC2)cc1,inactive: 5.32%
9,N#CC1(Nc2ccccc2)CCN(CCc2ccccc2)CC1,inactive: 0.655%
10,CCN1CCC(Nc2ccc(Cl)cc2)CC1,inactive: -2.98%
11,O=C(NCC1(N2CCCCC2)CCCCC1)c1ccc(OC(F)F)cc1,inactive: 2.34%
12,CCCOc1ccc(C(=O)NCC2(N(C)C)CCCCC2)cc1OC,inactive: -1.49%
13,O=C(NCC1(N2CCCCC2)CCCCC1)c1cncc(Br)c1,inactive: -1.12%
14,COc1ccc2c(c1O)-c1c(O)c(OC)cc3c1[C@H](C2)[N+](C)(C)CC3.O=[N+]([O-])c1cc([N+](=O)[O-])c([O-])c([N+](=O)[O-])c1[O-],inactive: -5.94%
15,CN1CCC(Nc2cccc(F)c2)CC1,inactive: 2.67%
16,O=C(OC1CN2CCC1CC2)c1ccc([N+](=O)[O-])cc1 (stereo unspecified),inactive: -0.638%
17,O=C(NCC1(N2CCOCC2)CCCCC1)c1cc(F)c(F)cc1Cl,inactive: 0.267%
18,COc1cc(OC)c(C(=O)NCC2(N(C)C)CCCCC2)cc1OC,inactive: -0.477%
19,O=[N+]([O-])c1cc([N+](=O)[O-])c(OC2CCCCC2O)c([N+](=O)[O-])c1 (stereo unspecified),inactive: -1.19%
20,CN(C)c1cccc(C(=O)NCC2(N3CCCCC3)CCCCC2)c1,inactive: 43.3%
21,COc1ccc(CN(CCCl)CCCl)cc1Cl,inactive: -0.595%

row,Structure (SMILES),"activity change, negative = inhibition"
1,CC(C)c1ccc(NC2CCN(C(=O)OC(C)(C)C)CC2)cc1,inactive: -2.54%
2,CCOC(=O)N1CCC(Nc2ccc(OC)cc2)CC1,inactive: 6.17%
3,O=C1C(O)=C([N+](=O)[O-])C(=O)C(O)=C1[N+](=O)[O-],inactive: -1.86%
4,COc1ccc(Cl)cc1C(=O)NCC1(N2CCOCC2)CCCCC1,inactive: 3.35%
5,O=C(OC1CN2CCC1CC2)C1c2ccccc2Oc2ccccc21 (stereo unspecified),inactive: 16.6%
6,O=C(NCC1(N2CCCCC2)CCCCC1)c1ccc(Cl)s1,inactive: 6.94%
7,N#CC1(Nc2ccccc2)CCN(Cc2ccccc2)CC1,inactive: 4.99%
8,O=C(NCC1(N2CCOCC2)CCCCC1)c1cc2ccccc2o1,inactive: 2.78%
9,Cc1cc(C)cc(N(C(=O)c2ccccc2)C2CCN(C(=O)OC(C)(C)C)CC2)c1,inactive: -0.716%
10,O=C(NCC1(N2CCCCC2)CCCCC1)c1ccc(Cl)nc1,inactive: 5.26%
11,Cc1cccc(NC2(C#N)CCN(Cc3ccccc3)CC2)c1,inactive: -0.331%
12,CSc1ccccc1C(=O)NCC1(N2CCCCC2)CCCCC1,inactive: 4.02%
13,O=C(NCC1(N2CCCCC2)CCCCC1)c1cccs1,inactive: 0.244%
14,O=C(NCC1(N2CCCCC2)CCCCC1)c1ccc(=O)[nH]c1,inactive: -0.786%
15,COc1ccc(C(=O)NCC2(N3CCCCC3)CCCCC2)c(OC)c1OC,inactive: 5.96%
16,CC(C)(C)OC(=O)N1CCC(N(C(=O)c2ccccc2)c2ccc(F)cc2)CC1,inactive: -0.627%
17,COc1ccc(C(=O)NCC2(N3CCCCC3)CCCCC2)cc1,inactive: 7.45%
18,COc1cc(C(=O)NCC2(N(C)C)CCCCC2)ccc1OC(F)F,inactive: 3.59%
19,CCOC(=O)N1CCC(Nc2cccc(C)c2)CC1,inactive: 1.6%
20,COc1ccc(NC2CCN(CCc3ccccc3)CC2)c(OC)c1,inactive: 0.245%
21,CCOC(=O)N1CCC(Nc2ccc(F)cc2)CC1,inactive: 3.79%

row,Structure (SMILES),"activity change, negative = inhibition"
1,O=C(NCC1(N2CCCCC2)CCCCC1)c1ccc(F)cc1,inactive: 0.505%
2,O=P1(N(CCCl)CCCl)SCCCS1,inactive: 0.36%
3,CCCCOc1ccc(C(=O)NCC2(N3CCOCC3)CCCCC2)cc1,inactive: -1.52%
4,CCOc1ccc(C)cc1CN(CCCl)CCCl,inactive: 1.54%
5,O=C1CCN(Cc2ccccc2)CC1,inactive: 3.05%
6,Cn1c(=O)[nH]cc(N(CCCl)CCCl)c1=O,inactive: 3.95%
7,CN(C)c1ccc(C(=O)NCC2(N3CCCCC3)CCCCC2)cc1,inactive: 3.53%
8,O=C(NCC1(N2CCCCC2)CCCCC1)c1ccco1,inactive: -0.803%
9,CCN1CCC(Nc2cccc(F)c2)CC1,inactive: 5.42%
10,Cc1ccccc1NC1(C#N)CCN(Cc2ccccc2)CC1,inactive: -3.01%
11,Cc1ccc(NC2(C#N)CCN(Cc3ccccc3)CC2)cc1,inactive: 1.39%
12,Fc1ccccc1NC1CCN(Cc2ccccc2)CC1,inactive: 3.54%
13,Cc1ccc(C(=O)NCC2(N3CCCCC3)CCCCC2)o1,inactive: 0.462%
14,COc1cc(OC)cc(C(=O)NCC2(N3CCCCC3)CCCCC2)c1,inactive: 6.23%
15,CC(=O)N(c1ccccc1)C1CCNCC1,inactive: 3.91%
16,CN1CCC(Nc2ccc(Cl)cc2)CC1,inactive: 0%
17,CCC(CO)(C(=O)OC1CN2CCC1CC2)c1ccccc1 (stereo unspecified),inactive: 4.71%
18,COc1cc(OC)cc(C(=O)NCC2(N3CCOCC3)CCCCC2)c1,inactive: -0.105%
19,COc1cccc(C(=O)N(c2cc(C)cc(C)c2)C2CCN(C(=O)OC(C)(C)C)CC2)c1,inactive: 0.765%
20,CCCOc1ccc(C(=O)NCC2(N(C)C)CCCCC2)cc1,inactive: 0.168%
21,O=C(O)C1(Nc2ccccc2)CCN(Cc2ccccc2)CC1,inactive: 0.0501%

row,Structure (SMILES),"activity change, negative = inhibition"
1,CC(C)(C)OC(=O)N1CCC(Nc2ccccc2)CC1,inactive: 3.74%
2,CN1CCC(Nc2ccc(F)c(Cl)c2)CC1,inactive: -4.06%
3,CCOc1ncccc1C(=O)NCC1(N2CCOCC2)CCCCC1,inactive: 0.24%
4,O=C(O)c1cccc(Nc2c([N+](=O)[O-])cc([N+](=O)[O-])cc2[N+](=O)[O-])c1,inactive: -2.63%
5,O=C(OC1CN2CCC1CC2)C1c2ccccc2C=Cc2ccccc21 (stereo unspecified),inactive: 3.51%
6,CCc1cc(C(=O)NCC2(N3CCCCC3)CCCCC2)sc1C,inactive: 4.8%
7,N/C(=N\O)c1c(N)no[n+]1[O-],inactive: 1.51%
8,CCOC(=O)N1CCC(Nc2ccc(C)cc2)CC1,inactive: 7.26%
9,COc1ccc(C(=O)NCC2(N3CCOCC3)CCCCC2)cc1OC,inactive: -2.87%
10,O=C(NCC1(N2CCOCC2)CCCCC1)c1cc(Br)ccc1Cl,inactive: 6.4%
11,COc1cc(C(=O)NCC2(N3CCOCC3)CCCCC2)cc(OC)c1C,inactive: 0.494%
12,CCCN1CCC(Nc2cc(OC)cc(OC)c2)CC1,inactive: -2.01%
13,Cc1cc(N(CCCl)CCCl)ccc1C=O,inactive: -4.03%
14,c1ccc(CN2CCC(Nc3ccccc3)CC2)cc1,inactive: 1.51%
15,CN(C)C1(CNC(=O)c2cccc(C#N)c2)CCCCC1,inactive: -1.05%
16,CCOC(=O)C(CC)C1=NC(C)(C)Cc2ccccc21.O=[N+]([O-])c1cc([N+](=O)[O-])c(O)c([N+](=O)[O-])c1 (stereo unspecified),inactive: -1.82%
17,CC(C)(C)OC(=O)N1CCC(N(C(=O)c2ccccc2)c2ccc(Cl)cc2)CC1,inactive: 1.3%
18,N#Cc1ccc(C(=O)NCC2(N3CCCCC3)CCCCC2)cc1,inactive: -1.02%

# Source: PubChem BioAssay AID504937 (National Center for Advancing Translational Sciences (NCATS), 2011)
